A549 tox – counter-screen for Nrf2 inhibitors: cytotoxicity in A549 cells | A549 ARE-Fluc cells, CellTiter-Fluor viability, 18-24 h | Potency, µM (series often up to 46 µM), hits mostly inhibitors | 0.16% of 390,000 active | AID 504648
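A549 ARE-Fluc cells in 5% FBS OPTI-MEM, 5000 cells/well, rested 2 h then exposed to compounds in concentration-response for 18-24 h at 37 °C. Viability by CellTiter-Fluor fluorescence (Ex 405/Em 525) after 30 min; luciferase luminescence (BugLite, 15 min, RT) read afterwards.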
Nrf2 inh – Nrf2 pathway inhibition; A549 ARE-Fluc reporter, luciferase luminescence, 18-24 h; Potency, µM (series often up to 46 µM), most hits filed as inhibitors; 2.1% of 360,000 active; further: nearly all actives have a fitted effect of over 60% in size
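In this cell-based qHTS, ARE-driven firefly luciferase in A549 cells reports Nrf2 activity; the luminescent signal after BugLite lysis is the measured value, with a prior CellTiter-Fluor read for cell health.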
TCR act – activates T cell receptor signaling; Potency, µM (top dose mostly 9.22 µM), actives largely listed as activators; AID 504894; 330,000 tested, under 10 active; primary human leukocytes, anti-CD3, IL-2 HTRF, 48 h
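Primary human leukocytes receive a-CD3 beads and test compound and are incubated 48 hr. Secreted IL-2 is then assayed by HTRF, measuring 665nm acceptor emission after 320nm excitation of the europium donor.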
miR-21 reporter – raises the signal of a miR-21 reporter; 340,000 tested, under 10 active; HeLa miR-21 FLuc reporter, luciferase, 48 h; Potency, µM (series often up to 38.3 µM); active = well fitted rising curve with a large enough effect; inconclusive = small, poorly fitted or top-dose-only effect; inactive = no such curve, though single readings can be large or run the other way;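 further: miR-21 action dims this reporter so a rising signal means less miR-21 action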
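Compounds were titrated across several concentrations (up to approximately 40 uM) and incubated 48 hours with HeLa miR-21-FLuc reporter cells (miR-21 target sequence downstream of FLuc, endogenous miR-21). Readout was firefly luciferase luminescence after lytic detection reagent.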
Nrf2 activator – activators of Nrf2 (ARE) signaling; AID 624171; 0.31% of 410,000 active; Potency, µM (doses to about 46.1 µM), usual class: activators; AREc32 ARE-luciferase reporter (MCF7-derived line), luminescence, 24 h; further: nearly all actives have a fitted effect of over 65% in size
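Quantitative high-throughput format: AREc32 reporter cells, 1000 per well, received compound by pin transfer and were incubated 24 hr at 37 deg C, 5% CO2, before Steady-Glo luminescence detection.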
ClpP mod – qHTS Assay for Activators of ClpP. purified B. subtilis ClpP, FRET peptide cleavage, 20 min. 1.9% of 340,000 active. ATP-dependent Clp protease proteolytic subunit (Bacillus subtilis (strain 168)), P80244. Potency, µM (highest dose often 57.5 µM); active means well fitted falling curve with a large enough effect; inconclusive means small, poorly fitted or top-dose-only effect; inactive means no such curve, though single readings can be large or run the other way; further: the source files actives as falling curves though it sought activators and does not explain the sign; nearly all actives have a fitted effect of over 65% in size
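ClpP 10 microg/mL final, pH 8 Tris/KCl buffer with BSA, glycerol, Tween-20; compound pinned in; FRET-FV substrate; RT 20 min; Ex320/Em430; ΔFRET vs ADEP 5.8 microM, DMSO, no enzyme.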
A number is an active result; n = inactive; u = inconclusive; x = no result given; ! = not confirmed by another sample. Compounds with a hit are over-represented: about 3.7% of the library has one in this group of screens. Unless noted, the call rests on the fitted dose curve; in most records, active means well fitted curve in the direction sought with a large enough effect; inconclusive means small, poorly fitted or top-dose-only effect, or another doubt; inactive means no such curve, though single readings can be large; an effect the other way counts as inactive or inconclusive.

SMILES	A549 tox	Nrf2 inh	TCR act	miR-21 reporter	Nrf2 activator	ClpP mod
CCC(C)(C)NC(=O)CN(C(=O)CCC(=O)Nc1nccs1)c1ccc(C)cc1	n	n	n	n	n	n
CCCOc1ccc(CNC(=O)Cn2cc3c(n2)-c2c(oc(C(=O)N4CCOCC4)c2C)CC3)cc1	n	u	x	u	n	n
Cc1onc(-c2ccccc2Cl)c1C(=O)NCc1ccc(F)cc1	n	n	n	n	n	x
O=C(/C=C/c1ccccc1[N+](=O)[O-])N1CCc2ccccc2C1	n	n	n	n	8.9µM	x
CCc1ccc(/C=C\C(=O)N2CCc3ccccc3C2)cc1	n	u	n	n	n	n
C/C(O)=C\c1nc2ccccc2oc1=O	n	n	n	n	16µM	n
Cc1ccc2oc(=O)c(/C=C(\O)c3cccs3)nc2c1	n	u	n	n	16µM	x
Cc1ccc2oc(=O)c(/C=C(\O)c3ccccc3)nc2c1	n	n	n	n	14µM	n
Cc1ccc2oc(=O)c(/C=C(\O)CC(C)C)nc2c1	n	n	n	n	u	n
O=c1oc2ccc(Cl)cc2nc1/C=C(\O)c1cccs1	n	u	n	n	u	n
Cc1cccc(CC(=O)NCc2nc3cccnc3n2Cc2ccc(F)cc2)c1	n	x	x	n	n	n
Nn1c(SCC(=O)N2CCCC2)nnc1C1CCCCC1	x	x	x	x	n	n
C=CCn1c(SCC(=O)c2[nH]c(C)c(C(C)=O)c2C)nnc1-c1ccncc1	n	x	n	n	n	32µM
CC(=O)c1c(C)[nH]c(C(=O)CSc2nnc(C3CCCCC3)n2N)c1C	n	21µM	n	n	n	n
COC(=O)C(Cc1ccccc1)NS(=O)(=O)c1cc(Br)ccc1Br (stereo unspecified)	n	n	x	x	x	x
O=C1c2ccccc2C(=O)N1c1cc(=O)c2ccccc2[nH]1	n	n	x	x	x	x
Cc1ccc(-c2[nH]c(-c3ccc(C(=O)O)cc3)nc2-c2ccccc2)cc1	n	n	n	n	n	n
CSc1nc(-c2ccccc2)c(-c2ccccc2)[nH]1	n	n	x	n	n	16µM
CC12CCC(C)(O1)C1C(=O)N(c3nccs3)C(=O)C12 (stereo unspecified)	n	n	n	x	n	x
O=Cc1cn(-c2ccccc2)nc1-c1cc2cc(O)ccc2oc1=O	u	n	n	n	n	n
O=C(O)/C=C/c1cn(-c2ccccc2)nc1-c1cc2ccccc2oc1=O	n	u	n	n	n	n
N#Cc1cn(-c2ccccc2)nc1-c1cc2ccccc2oc1=O	n	u	n	n	n	32µM
O=Cc1cn(-c2ccccc2)nc1-c1cc2c(ccc3ccccc32)oc1=O	n	n	n	n	n	5.6µM
Cc1c([S+](=O)([O-])N2CCN([S+](=O)([O-])c3c(F)cccc3F)CC2)sc2ccc(Cl)cc12	n	n	x	x	x	x
Cc1cccc(C2N=C(N)Nc3nc4ccccc4n32)c1 (stereo unspecified)	n	n	n	n	n	25µM!
SMILES	A549 tox	Nrf2 inh	TCR act	miR-21 reporter	Nrf2 activator	ClpP mod
Cc1nn(-c2ccccc2)c(C)c1/C=N/NC(=O)c1cc(-c2ccc(Br)s2)[nH]n1	n	u	n	n	n	n
Cc1nn(-c2ccccc2)c(C)c1/C=N/NC(=O)c1cc(-c2ccc(Cl)s2)[nH]n1	n	10µM	n	n	n	u
Cc1nn(-c2ccccc2)c(C)c1/C=N/NC(=O)c1cccs1	n	u	n	n	n	25µM
Cc1nn(-c2ccccc2)c(C)c1/C=N/NC(=O)c1cc(C23CC4CC(CC(C4)C2)C3)[nH]n1	u	13µM	n	n	n	n
Cc1nn(-c2ccccc2)c(C)c1/C=N/NC(=O)c1cc(-c2cccs2)[nH]n1	u	n	n	n	n	n
CCOC(=O)c1cc(-c2ccc(OC(F)F)cc2)nc2nc(SC)[nH]c(=O)c12	n	n	n	n	n	x
CCOC(=O)c1cc(-c2ccc(OC(F)F)cc2)nc2c1c(=O)[nH]c(=O)n2C	n	n	n	n	n	3.5µM
CCc1cc2c3c([nH]c2cc1S(=O)(=O)N1CCC2(CC1)OCCO2)CCCC3=O	n	u	n	n	n	n

High-throughput results (PubChem)
